Results reported in patent US9708323B2, “Tricyclic compounds as alpha-7 nicotinic acetylcholine receptor ligands” (BRISTOL-MYERS SQUIBB COMPANY, priority 2014, dated 2017).

The chains behind the UniProt entries cited, without tags or fusion partners. Residues count along the entry.
UniProt Q05941, 23-502 limits assumed: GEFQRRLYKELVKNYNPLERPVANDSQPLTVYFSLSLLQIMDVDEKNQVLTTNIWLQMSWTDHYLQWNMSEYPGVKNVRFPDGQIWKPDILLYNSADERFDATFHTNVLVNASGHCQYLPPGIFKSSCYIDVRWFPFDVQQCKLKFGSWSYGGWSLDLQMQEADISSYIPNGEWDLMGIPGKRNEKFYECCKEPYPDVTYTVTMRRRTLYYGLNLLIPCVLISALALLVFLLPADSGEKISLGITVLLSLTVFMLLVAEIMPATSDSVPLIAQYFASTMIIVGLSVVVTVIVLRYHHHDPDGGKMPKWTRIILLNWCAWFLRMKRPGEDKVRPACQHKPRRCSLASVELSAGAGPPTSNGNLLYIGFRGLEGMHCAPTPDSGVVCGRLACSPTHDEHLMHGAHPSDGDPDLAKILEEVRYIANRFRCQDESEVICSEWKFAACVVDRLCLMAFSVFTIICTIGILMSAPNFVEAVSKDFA

The molecules below were run against α-7 nicotinic ACh receptor ion channel expressed in HEK 293 cells (Rattus norvegicus, UniProt Q05941) (assay: Ca2+-sensitive, fluorescence-based assay for α-7 nicotinic acetylcholine receptor channel function in mammalian cells (FLIPR)). Conditions: read-out: FLIPR α7 (EC50), Table 1, agonist Ca2+ flux.
Protocol: II) A Ca^2+-Sensitive, Fluorescence-Based Assay α-7 for Nicotinic Acetylcholine Receptor Channel Function in Mammalian Cells (“FLIPR”). Summary:
Lead compounds are evaluated for agonist activity at α-7, α3β4, α4αβ2, and α1β1δ1ε sub-types of nicotinic ACh receptor ion channels expressed in mammalian HEK 293 cells. Agonist potency and efficacy values are determined from kinetic fluorescence Ca^2+ influx measurements made using a 384 well FLIPR (Fluorescence Image Plate Reader). The utility of fluorescent indicators for measuring changes in intracellular divalent cation concentrations, particularly Ca^2+, for drug discovery endeavors is well documented (Rudiger, R., et al., Nature Reviews, 2003, 4:579-586; Gonzalez J. E., et al., Receptors and Channels, 2002, 8:283-295). In this assay, channel expressing HEK cell lines seeded in 384 well assay plates are loaded with a membrane permeant fluorescent Ca^2+ indicator dye, whose 510 nm green emission signal increases in response to elevation of intracellular Ca^2+ concentration. The basal fluorescence from the cells is monitored in real time, followed by the acute addition of test compounds. If the compound is an agonist at any of the non-selective cation channels, the latter open and allow the movement of extracellular Ca^2+ ions into the cell cytoplasm, where they bind to the Ca^2+ indicator dye, and produce an increase in fluorescence output signal, which is detected by a cooled CCD imaging camera.
Reagents: The acetomethoxy (AM) ester of the Ca^2+ indicator dye Fluo-4 was obtained from InVitrogen, (Carlsbad, Calif.). Acetylcholine and all buffer constituents were purchased from Sigma Chemical Company, St. Louis, Mo. G418 and Minimal Essential Medium were purchased from InVitrogen Life Technologies, Carlsbad, Calif. Fetal bovine serum was purchased from (InVitrogen, Carlsbad, Calif.).
HEK-293 cells were grown in Minimal Essential Medium containing 10% (v/v) fetal bovine serum at 37° C. in a 5% CO2 incubator. HEK-293 cells stably expressing the ion channels were grown in the same medium with the addition of 500 μg/ml G418.
HEK-293 cells expressing the ion channels of interest were plated in 384 well, black-walled, clear-bottomed, poly-D-lysine coated plates at a density of ˜20,000 cells/well in 20 μl of Minimal Essential Medium containing 10% (v/v) fetal bovine serum and incubated for 2 days at 29° C. in a 5% CO2 incubator. Prior to assay, cells were loaded with the Fluo-4 AM ester. Cell loading was accomplished by removing the culture medium and replacing it with 30 μl/well of the AM ester of the dye (5 μM) mixed with Hanks Balanced Salt Solution (#14175-095) containing 20 mM HEPES, 2.5 mM probenecid, 0.5 mM CaCl2, 1 mM MgCl2 and 10 μM atropine. Dye loading was allowed to proceed for 90 minutes at room temperature at which time the dye loading solution was removed and replaced with 40 μl/well of Hanks buffer. Cells loaded with dye were loaded onto a FLIPR384 (Molecular Devices, Sunnyvale, Calif.). Fluo-4 dye was excited using the 488 nm line of an argon laser. Emission was filtered using a 540+/−30 nm bandpass filter. For evaluation of the effects of test compounds using the Ca^2+ flux assay, compounds to be tested were provided in assay ready plates. For nicotinic receptor ion channel expressing cells, the assay was initiated by the addition of 20 μl/well of Hanks buffer containing test compounds. For all assays, data were collected at 1 Hz for 10 seconds (baseline), at which time the compound containing stimulus buffers are added, and further measurements collected at 0.33 Hz for 3 min.
The statistical robustness of the nicotinic receptor Ca^2+ flux assays is determined from blanks and totals wells. The totals wells define maximal channel activation for each compound test plate (Maximum efficacious dose of acetylcholine), and the blanks wells which contain matched DMSO only, define zero channel activation. […]
`O=C(c1cc2ccccc2s1)N1CC2CN3CCC2C1C3` (stereo not drawn) gave an EC50 of 0.59 µM.
`O=C(c1ccc2c(c1)OCO2)N1CC2CN3CCC2C1C3` (stereo not drawn) was tested, and the EC50 was > 100 µM.
`Cc1cccc(C(=O)N2CC3CN4CCC3C2C4)n1` (stereo not drawn) was tested, and the EC50 was > 100 µM.
With `COc1ncccc1C(=O)N1CC2CN3CCC2C1C3` (stereo not drawn) the EC50 was > 100 µM.
`O=C(c1cc2ccccc2[nH]1)N1CC2CN3CCC2C1C3` (stereo not drawn) was tested, and the EC50 was > 100 µM.
`O=C(c1cscn1)N1CC2CN3CCC2C1C3` (stereo not drawn) was tested, and the EC50 was > 100 µM.
`O=C(c1cnc2ccccc2c1)N1CC2CN3CCC2C1C3` (stereo not drawn) was tested, and the EC50 was 18 µM.
With `Cc1cc(C(=O)N2CC3CN4CCC3C2C4)no1` (stereo not drawn) the EC50 was > 100 µM.
`O=C(c1cnc2ccccc2n1)N1CC2CN3CCC2C1C3` (stereo not drawn) was tested, and the EC50 was > 100 µM.
For `O=C(c1nc2ccccc2s1)N1CC2CN3CCC2C1C3` (stereo not drawn), the EC50 was > 100 µM.
For `O=C(c1ccccn1)N1CC2CN3CCC2C1C3` (stereo not drawn), the EC50 was > 100 µM.
With `O=C(c1ccnc2ccccc12)N1CC2CN3CCC2C1C3` (stereo not drawn) the EC50 was > 100 µM.
`O=C(c1csc(-c2ccccc2)n1)N1CC2CN3CCC2C1C3` (stereo not drawn) was tested, and the EC50 was > 100 µM.
`O=C(c1ccc2cnccc2n1)N1CC2CN3CCC2C1C3` (stereo not drawn) was tested, and the EC50 was > 100 µM.
`O=C(c1cc2ccccc2o1)N1CC2CN3CCC2C1C3` (stereo not drawn) showed an EC50 of 4.5 µM.
In the case of `O=C(c1cccs1)N1CC2CN3CCC2C1C3` (stereo not drawn), the EC50 is reported as > 100 µM.
`O=C(c1cncnc1)N1CC2CN3CCC2C1C3` (stereo not drawn) was tested, and the EC50 was > 100 µM.
`O=C(c1ccco1)N1CC2CN3CCC2C1C3` (stereo not drawn) was tested, and the EC50 was > 100 µM.
With `O=C(c1ccc(-c2ccccc2)o1)N1CC2CN3CCC2C1C3` (stereo not drawn) the EC50 was > 100 µM.
For `O=C(c1cccc2c1OCC2)N1CC2CN3CCC2C1C3` (stereo not drawn), the EC50 was > 100 µM.
`O=C(c1cccc2ccccc12)N1CC2CN3CCC2C1C3` (stereo not drawn) was tested, and the EC50 was > 100 µM.
`O=C(c1ccc2ncsc2c1)N1CC2CN3CCC2C1C3` (stereo not drawn) was tested, and the EC50 was > 100 µM.
With `O=C(c1cc2c(Cl)cccc2s1)N1CC2CN3CCC2C1C3` (stereo not drawn) the EC50 was > 100 µM.
In the case of `O=C(c1ccc2ccccc2n1)N1CC2CN3CCC2C1C3` (stereo not drawn), the EC50 is reported as > 100 µM.
With `O=C(c1csnn1)N1CC2CN3CCC2C1C3` (stereo not drawn) the EC50 was > 100 µM.
For `O=C(c1n[nH]c2ccc(Br)cc12)N1CC2CN3CCC2C1C3` (stereo not drawn), the EC50 was > 100 µM.
`O=C(c1ccsc1)N1CC2CN3CCC2C1C3` (stereo not drawn) was tested, and the EC50 was > 100 µM.
`O=C(c1n[nH]c2ccc(Cl)cc12)N1CC2CN3CCC2C1C3` (stereo not drawn) gave an EC50 of 0.4 µM.
Work on `O=C(c1ccc2nccnc2c1)N1CC2CN3CCC2C1C3` (stereo not drawn) yielded an EC50 of 25 µM.
With `Cc1ccc(C(=O)N2CC3CN4CCC3C2C4)s1` (stereo not drawn) the EC50 was 6.6 µM.
Molecule `Cc1cnc(C(=O)N2CC3CN4CCC3C2C4)cn1` (stereo not drawn) has an EC50 of 3.9 µM.
For `O=C(c1ccc(Cl)cc1)N1CC2CN3CCC2C1C3` (stereo not drawn), the EC50 was > 100 µM.
For `Cc1nn(-c2ccccc2)nc1C(=O)N1CC2CN3CCC2C1C3` (stereo not drawn), the EC50 was > 100 µM.
`O=C(c1ccncc1)N1CC2CN3CCC2C1C3` (stereo not drawn) was tested, and the EC50 was > 100 µM.
In the case of `COc1ccccc1C(=O)N1CC2CN3CCC2C1C3` (stereo not drawn), the EC50 is reported as > 100 µM.
With `O=C(c1ccnnc1)N1CC2CN3CCC2C1C3` (stereo not drawn) the EC50 was > 100 µM.
For `O=C(c1ccno1)N1CC2CN3CCC2C1C3` (stereo not drawn), the EC50 was > 100 µM.
With `Cn1nc(C(=O)N2CC3CN4CCC3C2C4)c2ccccc21` (stereo not drawn) the EC50 was > 100 µM.
`Cn1ccnc1C(=O)N1CC2CN3CCC2C1C3` (stereo not drawn) was tested, and the EC50 was > 100 µM.
`Cn1cc(C(=O)N2CC3CN4CCC3C2C4)c2ccccc21` (stereo not drawn) was tested, and the EC50 was > 100 µM.
With `O=C(c1cnccn1)N1CC2CN3CCC2C1C3` (stereo not drawn) the EC50 was > 100 µM.
With `COc1ccc2c(C(=O)N3CC4CN5CCC4C3C5)n[nH]c2c1` (stereo not drawn) the EC50 was 1.1 µM.
In the case of `Cc1csc(C(=O)N2CC3CN4CCC3C2C4)c1` (stereo not drawn), the EC50 is reported as > 100 µM.
Work on `COc1cccc2[nH]nc(C(=O)N3CC4CN5CCC4C3C5)c12` (stereo not drawn) yielded an EC50 of 22 µM.
In the case of `O=C(c1csc(-c2cccnc2)n1)N1CC2CN3CCC2C1C3` (stereo not drawn), the EC50 is reported as > 100 µM.
